# Data as given in PMC4778863, “A Four-Point Screening Method for Assessing Molecular Mechanism of Action (MMOA) Identifies Tideglusib as a Time-Dependent Inhibitor of Trypanosoma brucei GSK3β” (PLoS Neglected Tropical Diseases, 2016).
# Target: T1, TbGSK3β (Trypanosoma brucei brucei, UniProt Q388M1)
# T1 construct: Full-length TbGSK3β (Gene DB ID Tb927.10.13780); 6X His (C); made in house; host or cells: BL21 (DE3) E. coli
# T1 sequence (Q388M1 1-352): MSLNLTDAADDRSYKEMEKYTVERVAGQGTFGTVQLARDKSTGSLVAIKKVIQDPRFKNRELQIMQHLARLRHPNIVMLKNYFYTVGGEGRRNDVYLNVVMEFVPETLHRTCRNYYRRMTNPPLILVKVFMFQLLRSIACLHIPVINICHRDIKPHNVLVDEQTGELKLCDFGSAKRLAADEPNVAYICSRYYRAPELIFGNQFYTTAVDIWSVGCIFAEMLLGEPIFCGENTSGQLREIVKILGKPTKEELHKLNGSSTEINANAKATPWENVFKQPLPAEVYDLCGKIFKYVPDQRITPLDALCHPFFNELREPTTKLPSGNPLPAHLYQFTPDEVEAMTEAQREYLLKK
# Type: biochemical
# Details: % inhibition at 30 min preincubation / % inhibition at 0 min preincubation at 10 μM ATP
# Method: TbGSK3β activity was measured by following the ADP formation associated with the phosphorylation of GSM peptide and detected with ADP-Glo at 23°C. The enzyme reaction was conducted in a volume of 20 μL in a buffer containing 20 mM NaCl, 15 mM HEPES pH 7.4, 1 mM EGTA, 10 mM MgCl2, 0.02% Tween. These assays contained GSM at 10μM (approximating Km) or 80 μM (approximating Vmax). ATP was added at 10 μM and 100 μM to approximate Km and Vmax, respectively.
# All reactions were incubated for 5 minutes in microcentrifuge tubes, and reactions were terminated at 80°C for 4 min. Of 20 μL reactions, 17.5 μL were transferred into 384 well-plates. Promega ADP-Glo procedures were carried out and phosphorylation measured by Luminoskan Ascent (Thermo Labsystems, Waltham MA). […]
# IC50 for inhibition TbGSK3β was determined as a function of preincubation time (Fig 3). […] ADP product formation was measured by ADP-Glo kit.
# Preincubated reactions were preincubated with inhibitor, TbGSK3β, GSM peptide, and buffer at room temperature; after 30 minutes reactions were initiated with the addition of ATP. […] Reactions were run for 5 min at room temperature, and stopped heat at 80°C, followed by ice bath, and ADP product formation was measured by ADP-Glo kit. […]
# Time dependent inhibition was evaluated by preincubation of TbGSK3β with 60 nM tideglusib and 6 nM GW-8510 with 10μM and 100μM ATP. […] ADP formed was measured by ADP-Glo kit. […]
smiles,measurement,value
Cc1cc(Nc2nc(N[C@@H](C)c3ccc(F)cc3)c(C#N)cc2F)[nH]n1 [AZ960],Ratio Preinc/no preinc,0.73
